{
  "source": "PubChem BioAssay AID624171",
  "about": "(National Center for Advancing Translational Sciences (NCATS), 2012)",
  "note": "The entries are a selection whose mix differs from that of the whole data set. Calls of active or inactive are those of the source. Calls follow the shape of the dose curve; as a rule, active = well fitted activation curve with a large enough effect; inconclusive = small, poorly fitted or top-dose-only effect; inactive = flat fitted curve, though single readings scatter.",
  "data": [
    {"assay": "qHTS of Nrf2 Activators; also: % of control where 0% means no effect; nearly all actives have a fitted effect of over 65% in size", "conditions": "AREc32 ARE-luciferase reporter (MCF7-derived line), luminescence, 24 h; at 46.1 µM (top of the series)", "source_text": "Many diseases have some form of oxidative stress injury and ties to inflammation, causing a host of problems for the patient. The antioxidant response element (ARE) plays an important role in alleviating the harmful effects of oxidative stress. The antioxidant response element (ARE) is a transcriptional regulatory element involved in the activation of genes coding for a number of antioxidant proteins and detoxifying enzymes. These enzymes work in concert to protect tissues from oxidative insults and chemical toxicities in human hepatocytes and immune cells. The protective effects of ARE activation are primarily triggered through Nrf2 (NF-E2-related factor) binding to and activating AREs. It is known that Nrf2 controls the production of over 250 antioxidant and detoxification proteins (Hu et al., 2006), thereby protecting tissues by increasing cellular antioxidant content and suppressing inflammatory signaling pathways. The transcription factor Nrf2 is a central link between oxidative chemicals, such as phenolic antioxidants and electrophilic compounds, and the activation of ARE. Nrf2 levels are constitutively low as a consequence of its interaction with Keap1, which targets its degradation (Zipper and Mulcahy, 2002). Electrophiles react with key cysteine residues in Keap1, releasing Nrf2 and allowing its translocation to the nucleus. Once within the nucleus, Nrf2 complexes with coactivators such as p300, and binds to the AREs to induce gene transcription of cytoprotective enzymes, resulting in the prevention of toxicity. Activation of Nrf2 protects tissues by increasing cellular antioxidant content and suppressing inflammatory signaling pathways. Identifying novel and potent Nrf2 activators by using the AREc32 cell line to detect ARE activation by small molecules will lead to the identification and development of probes to study protective pathways in multiple tissues. These specific probes are essential to study the ARE pathway, and eventually to determine whether this pathway does activate genes that could protect against a host of diseases, including cardiovascular diseases, obesity, diabetes, Alzheimer's, and Parkinson's disease.\nThis project's aim is to identify novel and potent Nrf2 activators by using the AREc32 cell line to detect ARE activation by small molecules, which will lead to the identification and development of probes to study the ARE pathway.\nNIH Chemical Genomics Center [NCGC]\nNIH Molecular Libraries Probe Centers Network [MLPCN]\nAssay Submitter (PI): Curtis Klaassen, University of Kansas Medical Center\n5 uL of 1000 cells/well of AREc32_Fluc cells are seeded into 1536-well plate in OPTI-MEM medium with 5% FBS. The plates are incubated overnight at 37 deg C with 5% CO2. Then through pin tool transfer, 23 nL of compounds are added to each well before a 24 hr incubation at 37 deg C with 5% CO2. After the addition of 2.5 uL of Steady-Glo. the plates are kept at RT for 30 min, before they are read on the ViewLux.", "values": [
      {"smiles": "CCOC(=O)c1ccc(NP(C)(=O)Oc2ccc(OC)cc2)cc1", "note": "(stereo not drawn)", "activation": "inactive: 0.0535%"},
      {"smiles": "CCOP(C)(=S)SCC(=O)NC(C)C(=O)O", "note": "(stereo not drawn)", "activation": "inactive: 0.0918%"},
      {"smiles": "CP(=O)(Nc1ccccn1)Oc1ccc(Cl)cc1", "note": "(stereo not drawn)", "activation": "inactive: 0.285%"},
      {"smiles": "CP(=O)(Oc1ccccc1)OC(c1ccccc1)C(F)(F)F", "note": "(stereo not drawn)", "activation": "inactive: 0.25%"},
      {"smiles": "CP(=O)(Nc1ccc(SC(F)(F)F)cc1)Oc1ccc(Cl)cc1", "note": "(stereo not drawn)", "activation": "inactive: 0.0827%"},
      {"smiles": "Cc1cccc(C)c1OP(C)(=O)Nc1ccc(SC(F)(F)F)cc1", "note": "(stereo not drawn)", "activation": "inactive: 0.116%"},
      {"smiles": "Cc1cc(C)cc(OP(C)(=O)Nc2ccc(SC(F)(F)F)cc2)c1", "note": "(stereo not drawn)", "activation": "inactive: 1.84%"},
      {"smiles": "CCc1ccc(OP(C)(=O)N2CCN(c3ccc([N+](=O)[O-])cc3)CC2)cc1", "note": "(stereo not drawn)", "activation": "inactive: 3.05%"},
      {"smiles": "CP(=O)(NC(=O)Nc1ccccc1)Oc1ccccc1", "note": "(stereo not drawn)", "activation": "inactive: -0.133%"},
      {"smiles": "COc1ccccc1-c1ccccn1.O=[N+]([O-])c1cc([N+](=O)[O-])c(O)c([N+](=O)[O-])c1", "activation": "inactive: 0.0588%"},
      {"smiles": "CCN(CC)CCCOC(=O)C(O)(c1ccccc1)c1ccccc1", "activation": "inactive: -0.599%"},
      {"smiles": "Cc1ccc(NP(C)(=O)Oc2ccccc2)c(C)c1", "note": "(stereo not drawn)", "activation": "inactive: 1.86%"},
      {"smiles": "COc1ccccc1OP(C)(=O)Nc1ccc(C)cc1", "note": "(stereo not drawn)", "activation": "inactive: 0.238%"},
      {"smiles": "CCOC(=O)c1ccc(NP(C)(=O)Oc2ccccc2)cc1", "note": "(stereo not drawn)", "activation": "inactive: -0.263%"},
      {"smiles": "Cc1cc(C)cc(OP(C)(N)=O)c1", "note": "(stereo not drawn)", "activation": "inactive: -0.818%"},
      {"smiles": "COc1ccc(OP(C)(=O)Nc2cccc(F)c2)cc1", "note": "(stereo not drawn)", "activation": "inactive: 0.265%"},
      {"smiles": "COc1ccccc1OP(C)(=O)Nc1cc(Cl)ccc1C", "note": "(stereo not drawn)", "activation": "inactive: -0.613%"},
      {"smiles": "O=[N+]([O-])c1cc([N+](=O)[O-])c(Nc2cccnc2)c([N+](=O)[O-])c1", "activation": "inactive: 15.1%"},
      {"smiles": "O=[N+]([O-])c1ccc2c(c1)C=Nc1ccccc1O2", "activation": "inactive: 12%"},
      {"smiles": "Cc1cccc(C)c1OP(C)(N)=O", "note": "(stereo not drawn)", "activation": "inactive: -0.0432%"},
      {"smiles": "CC(C)(C)c1ccc(OP(C)(=O)Nc2ccc(SC(F)(F)F)cc2)cc1", "note": "(stereo not drawn)", "activation": "inactive: -1.44%"},
      {"smiles": "CP(=O)(OCCOc1ccccc1)OCCOc1ccccc1", "activation": "inactive: -0.208%"},
      {"smiles": "CCCCCCCCCCCCCCCC1C[N+](C)(C)CCOP(C)(=O)O1", "note": "(stereo not drawn)", "activation": "inactive: -0.175%"},
      {"smiles": "CP(=O)(Nc1ccc(Cl)cc1Cl)Oc1ccccc1", "note": "(stereo not drawn)", "activation": "inactive: 3.96%"},
      {"smiles": "Cc1cc(C)cc(OP(C)(=O)Nc2cccc(C(F)(F)F)c2)c1", "note": "(stereo not drawn)", "activation": "inactive: 2.71%"},
      {"smiles": "COc1ccccc1OP(C)(=O)Nc1ccc(C)c(C)c1", "note": "(stereo not drawn)", "activation": "inactive: 0.324%"},
      {"smiles": "COc1ccc(OP(C)(=O)Nc2ccccc2Br)cc1", "note": "(stereo not drawn)", "activation": "inactive: -0.976%"},
      {"smiles": "O=[N+]([O-])c1cc([N+](=O)[O-])c(Nc2ccccn2)c([N+](=O)[O-])c1", "activation": "inactive: -2.85%"},
      {"smiles": "Cc1c(NP(C)(=O)Oc2ccc(C(C)C)cc2)c(=O)n(-c2ccccc2)n1C", "note": "(stereo not drawn)", "activation": "inactive: 0.263%"},
      {"smiles": "COc1ccccc1OP(C)(=O)Nc1ccc(C)cc1C", "note": "(stereo not drawn)", "activation": "inactive: -0.366%"},
      {"smiles": "CP(=O)(Nc1ccccn1)Oc1ccccc1", "note": "(stereo not drawn)", "activation": "inactive: -0.178%"},
      {"smiles": "CCc1ccc(OP(C)(=O)O)cc1", "activation": "inactive: 0.113%"},
      {"smiles": "COc1ccccc1OP(C)(=O)Nc1ccc(Br)cc1", "note": "(stereo not drawn)", "activation": "inactive: 0.156%"},
      {"smiles": "COc1ccc(OP(C)(=O)Nc2ccccn2)cc1", "note": "(stereo not drawn)", "activation": "inactive: -1.14%"},
      {"smiles": "CN(C)CCOC(=O)C(O)(c1ccccc1)C1CCCC1", "note": "(stereo not drawn)", "activation": "inactive: 0.0093%"},
      {"smiles": "CC(C)(C)c1ccc(OP(C)(=O)O)cc1", "activation": "inactive: -0.691%"},
      {"smiles": "COc1ccccc1OP(C)(=O)Nc1ccccc1Br", "note": "(stereo not drawn)", "activation": "inactive: -0.378%"},
      {"smiles": "CP(=O)(Nc1ccc(Cl)cc1)Oc1ccc(F)cc1", "note": "(stereo not drawn)", "activation": "inactive: 0.734%"},
      {"smiles": "CN(C)C(=O)c1c([N+](=O)[O-])cc([N+](=O)[O-])cc1[N+](=O)[O-]", "activation": "inactive: -3.38%"},
      {"smiles": "COc1ccc(OP(C)(=O)Nc2ccc(Br)cc2)cc1", "note": "(stereo not drawn)", "activation": "inactive: 3.74%"},
      {"smiles": "CCN(CC)CC(O)COC(=O)C(O)(c1ccccc1)C1CCCCC1", "note": "(stereo not drawn)", "activation": "inactive: 0.253%"},
      {"smiles": "O=C(OCCCN1CCCC1)C(O)(c1ccccc1)C1CCCCC1", "note": "(stereo not drawn)", "activation": "inactive: -0.359%"},
      {"smiles": "COc1ccccc1OP(C)(=O)Nc1c(C)n(C)n(-c2ccccc2)c1=O", "note": "(stereo not drawn)", "activation": "inactive: -0.751%"},
      {"smiles": "CCc1ccc(OP(C)(=O)Nc2cccnc2)cc1", "note": "(stereo not drawn)", "activation": "inactive: 0.712%"},
      {"smiles": "CP(=O)(Oc1ccccc1)N1CCOC1=O", "note": "(stereo not drawn)", "activation": "inactive: -0.764%"},
      {"smiles": "Nc1ccc2c(ccc3cccnc32)n1.O=[N+]([O-])c1cc([N+](=O)[O-])c(O)c([N+](=O)[O-])c1", "activation": "inactive: 11.1%"},
      {"smiles": "CCOC(=O)c1ccc(NP(C)(=O)Oc2ccc(Cl)cc2)cc1", "note": "(stereo not drawn)", "activation": "inactive: 0.444%"},
      {"smiles": "CP(=O)(OC12CC3CC(CC(C3)C1)C2)OC12CC3CC(CC(C3)C1)C2", "activation": "inactive: -0.22%"},
      {"smiles": "O=[N+]([O-])c1ccc(OP2(=O)COCCO2)cc1", "note": "(stereo not drawn)", "activation": "inactive: 0.202%"},
      {"smiles": "Cc1cc(-c2cccc3ccccc23)c(C)cn1.O=[N+]([O-])c1cc([N+](=O)[O-])c(O)c([N+](=O)[O-])c1", "activation": "inactive: 0.572%"},
      {"smiles": "Cc1c(C(c2ccc3c(c2)OCO3)c2c(C)n(C)n(-c3ccccc3)c2=O)c(=O)n(-c2ccccc2)n1C.O=[N+]([O-])c1cc([N+](=O)[O-])c(O)c([N+](=O)[O-])c1", "activation": "inactive: -0.707%"},
      {"smiles": "COc1ccc(OP(C)(=O)Nc2cccc(Br)c2)cc1", "note": "(stereo not drawn)", "activation": "inactive: 0.0225%"},
      {"smiles": "CN(C)CCOC(=O)C(O)(c1ccccc1)C1CCCCC1", "note": "(stereo not drawn)", "activation": "inactive: -0.349%"},
      {"smiles": "COc1ccc(NP(C)(=O)Oc2ccccc2OC)cc1", "note": "(stereo not drawn)", "activation": "inactive: 1.85%"},
      {"smiles": "CP(=O)(Nc1ccc2c(c1)OCCO2)Oc1ccccc1", "note": "(stereo not drawn)", "activation": "inactive: 0.114%"},
      {"smiles": "Cc1ccccc1NP(C)(=O)Nc1ccccc1C", "activation": "inactive: -0.178%"},
      {"smiles": "O=[N+]([O-])c1cc([N+](=O)[O-])c(C(F)(F)F)c([N+](=O)[O-])c1O", "activation": "inactive: 0.211%"},
      {"smiles": "CP(=O)(Nc1ccc(SC(F)(F)F)cc1)Oc1ccc(F)cc1", "note": "(stereo not drawn)", "activation": "inactive: -0.0054%"},
      {"smiles": "CCOP(C)(=S)SCC(=O)NC(C)(CC)C(=O)O", "note": "(stereo not drawn)", "activation": "inactive: -0.576%"},
      {"smiles": "O=C(OCCN1CCN(CCOCc2ccccc2)CC1)C(O)(c1ccccc1)c1ccccc1", "activation": "inactive: 0.672%"},
      {"smiles": "CP(=O)(Nc1ccccc1F)Oc1ccccc1", "note": "(stereo not drawn)", "activation": "inactive: 0.388%"},
      {"smiles": "CC(C)c1ccc(OP(C)(=O)Nc2ccc(SC(F)(F)F)cc2)cc1", "note": "(stereo not drawn)", "activation": "inactive: 0.558%"},
      {"smiles": "Cc1c([N+](=O)[O-])cc([N+](=O)[O-])c(Br)c1[N+](=O)[O-]", "activation": "inactive: -0.548%"},
      {"smiles": "CCN(CC)CCCOC(=O)C(O)(c1ccccc1)C1CCCCC1", "note": "(stereo not drawn)", "activation": "inactive: -0.195%"},
      {"smiles": "CP(=O)(Nc1ccccc1)Oc1ccc(F)cc1", "note": "(stereo not drawn)", "activation": "inactive: -0.43%"},
      {"smiles": "CCCCCOc1ccc(NP(C)(=O)Oc2ccc(Cl)cc2Cl)cc1", "note": "(stereo not drawn)", "activation": "inactive: -0.695%"},
      {"smiles": "CCOC(=O)c1ccc(NP(C)(=O)Oc2ccc(F)cc2)cc1", "note": "(stereo not drawn)", "activation": "inactive: -0.562%"},
      {"smiles": "COc1ccc(OP(C)(=O)Nc2ccc(SC(F)(F)F)cc2)cc1", "note": "(stereo not drawn)", "activation": "inactive: -0.204%"}
    ]}
  ]
}
